# This is a selection; strong and weak results do not stand in their true shares. Activity calls are given as the source filed them.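 How the source made its calls: active means inhibition above the batch mean plus 3 SD, and confirmed as a hit on visual image review (cut at about 43% in these data); inconclusive means passes the inhibition cutoff but fails visual image review; inactive means the rest.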
# Test: E-selectin induction blockers in HUVEC – imaging, immunofluorescence, high content, primary screen (AID 1246);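 further: 0% = TNF-stimulated DMSO wells and 100% = unstimulated control wells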
# Details: HUVEC TNFa-induced E-selectin immunofluorescence, at 2 µM, stronger effect = higher value
row,SMILES,inhibition
1,CN1CCN(CCOC(=O)C(O)(c2ccccc2)c2ccccc2)CC1,inactive: 2.91%
2,COc1ccc(NC2CCN(C(=O)OC(C)(C)C)CC2)cc1,inactive: -23.2%
3,O=C(NCC1(N2CCOCC2)CCCCC1)c1cc(=O)[nH]c2ccccc12,inactive: -6.62%
4,N#CC1(Nc2ccccc2)CCN(CCc2ccccc2)CC1,inactive: 9.47%
5,CN1CCC(Nc2cccc(F)c2)CC1,inactive: -39.6%
6,CN(C)c1cccc(C(=O)NCC2(N3CCCCC3)CCCCC2)c1,inactive: -24.4%
7,CCOC(=O)N1CCC(Nc2ccc(OC)cc2)CC1,inactive: 32.9%
8,O=C(NCC1(N2CCOCC2)CCCCC1)c1cc2ccccc2o1,inactive: 8.32%
9,CCN1CCC(Nc2cccc(F)c2)CC1,inactive: 14.6%
10,CCC(CO)(C(=O)OC1CN2CCC1CC2)c1ccccc1 (centres undefined),inactive: -10.9%
11,CC(C)(C)OC(=O)N1CCC(Nc2ccccc2)CC1,inactive: -22.2%
12,CCOc1ncccc1C(=O)NCC1(N2CCOCC2)CCCCC1,inactive: -24%
13,c1ccc(CN2CCC(Nc3ccccc3)CC2)cc1,inactive: 0.96%
14,N#Cc1ccc(C(=O)NCC2(N3CCCCC3)CCCCC2)cc1,inactive: -35.9%
